This series has as its system pancreatin (Panzytrat 40,000). Kind of series: Cleavage experiments with pancreatin in water, followed by acid number. Conditions: individual esters in pure form, 50° C. The method, then: The pancreatin is used in the form of the commercially available product Panzytrat® 40,000 from the Allergan company. The whole mixture is stirred on a hot plate at 50° C.; the course of the reaction is determined and monitored by continuously recording the acid number over time.

Regarding “3-hydroxybutyric acid tetra-diglycerol ester”, the “cleavage by pancreatin to free 3-hydroxybutyric acid (3-BHB-FS)” value is on record as “cleaved by pancreatin to the free 3-hydroxybutyric acid”.

Source of the values: patent publication US20230020342A1, “METHOD FOR PRODUCING POLYOL-BASED ESTERS, IN PARTICULAR POLYGLYCEROL ESTERS, FROM HYDROXY CARBOXYLIC ACIDS” (IOI Oleo GmbH, priority 2019, published 2023).
